## Antibody variant affinities, Ab-14 light chain, assay 1

Source: Engelhart et al. 2022 (doi:10.1038/s41597-022-01779-4), MIT Lincoln Laboratory and A-Alpha Bio; data file from the FLAb repository.

Target peptide (SARS-CoV-2 spike, HR2 region): PDVDLGDISGINAS

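Phage display of a naive human antibody library on the peptide gave the parent. Variants in AAYL50 differ from the parent at up to three CDR positions; double and triple changes were sampled at random. The assay is AlphaSeq: two haploid yeast populations carry antibody and antigen on their surface. Mating (16 h, 30 °C) was followed by selection of diploids and sequencing of their barcodes. The ratio of observed to expected reads was calibrated, replicate by replicate, on BCL2-family standards whose Kd was known from biolayer interferometry. There are three technical replicates.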

Each scFv is VH, a (GGGGS)3 linker, VL, as in the parent Ab-14, and differs from it in the CDRs of the light chain only.
VH: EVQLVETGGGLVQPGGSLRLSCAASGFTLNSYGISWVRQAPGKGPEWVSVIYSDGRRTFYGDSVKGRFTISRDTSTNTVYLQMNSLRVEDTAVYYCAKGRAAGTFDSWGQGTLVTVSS
VL: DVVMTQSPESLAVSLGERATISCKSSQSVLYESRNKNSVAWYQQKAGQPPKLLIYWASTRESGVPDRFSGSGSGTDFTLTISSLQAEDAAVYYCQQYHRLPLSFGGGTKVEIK

Each variant is given by its three light chain CDRs, as the data file delimits them; those of the parent are KSSQSVLYESRNKNSVA, WASTRES, QQYHRLPLS.
All variants listed here change Y31 of the VL, counted from its first residue.
The Kd shown is the geometric mean over detected replicates; a lower Kd is a better binder.
An entry "nd" has no value in the source: the pair was not observed among the diploids in any replicate. This suggests poor binding but is not conclusive.
Order: sorted from the lowest average up, undetected variants last.

Variant KFSQSVLSESRNKNSVA, YASTRES, QQYHRLPLS gave 500 pM (3 of 3 replicates; controls 1 of 9).
Variant KSSQSVLDESRNKNSVA, WASERES, QQYHRLPLS gave 1.2 nM (3 of 3 replicates; controls 0 of 9).
Variant KSSQSVLWESRNKNPVA, QASTRES, QQYHRLPLS gave 1.6 nM (3 of 3 replicates; controls 1 of 9).
Variant KSSMSVLLESRNKGSVA, WASTRES, QQYHRLPLS gave 2.3 nM (3 of 3 replicates; controls 1 of 9).
Variant KSSNSVLTESRNKNSVA, WASTRES, QQYQRLPLS gave 2.5 nM (3 of 3 replicates; controls 3 of 9).
Variant KSSQSVLFESRNKNSVA, TASTRES, QQTHRLPLS gave 2.6 nM (3 of 3 replicates; controls 3 of 9).
Variant KSSQSVLIESRNKNSVA, WASTRES, QQYHRNPLK gave 3.1 nM (3 of 3 replicates; controls 0 of 9).
Variant KSSQSVYSESRNKNSVA, WASTRES, QQYHRLPLS gave 3.4 nM (3 of 3 replicates; controls 4 of 9).
Variant NSSQSVLLESRNKNSVA, WASTRES, QQYHRLPLS gave 5.7 nM (3 of 3 replicates; controls 2 of 9).
Variant KSSQSVLNEDRNKNSVA, WASTRES, QQYHRLPYS gave 6.3 nM (3 of 3 replicates; controls 6 of 9).
Variant KYSQSVLKESRNKNSVA, WASTRET, QQYHRLPLS gave 6.5 nM (3 of 3 replicates; controls 1 of 9).
Variant KSSQSVLTESRNKNSVA, WASTRES, QQAHRLPLI gave 8.6 nM (3 of 3 replicates; controls 2 of 9).
Variant KSSQSVLFESRNKNSVA, WASTRES, QQYTRLHLS gave 9.6 nM (3 of 3 replicates; controls 0 of 9).
Variant KSSYSVLAESRCKNSVA, WASTRES, QQYHRLPLS gave 12 nM (3 of 3 replicates; controls 0 of 9).
Variant KSSQSVDKESRNCNSVA, WASTRES, QQYHRLPLS gave 14 nM (3 of 3 replicates; controls 0 of 9).
Variant KSSQSVLRESRNKNSVA, GASTRES, QQYHYLPLS gave 23 nM (3 of 3 replicates; controls 0 of 9).
Variant MSSQSVLQESRNKNSVA, WASTRES, QQCHRLPLS gave 28 nM (3 of 3 replicates; controls 3 of 9).
Variant KSSQSVLMESRNKNSVA, WASTRES, QQYHRLPLS gave 53 nM (3 of 3 replicates; controls 0 of 9).
Variant KSSQSVLGESRNKSSVA, WASTRES, QQHHRLPLS gave 72 nM (3 of 3 replicates; controls 7 of 9).
Variant KSSQQVLWESRNKNSVA, WASTRES, QQYHRLYLS gave 110 nM (3 of 3 replicates; controls 0 of 9).
Variant KSSCSVLHMSRNKNSVA, WASTRES, QQYHRLPLS gave 130 nM (2 of 3 replicates; controls 0 of 9).
Variant KSSQSVLKESRNKNSVA, WASTRWS, QQYERLPLS gave 270 nM (3 of 3 replicates; controls 8 of 9).
Variant KSSQSVLHESRNKQSVA, WASTRPS, QQYHRLPLS gave 320 nM (3 of 3 replicates; controls 0 of 9).
Variant KSSQSVLRESRNKNSVA, WASTRES, QQHHRCPLS gave 600 nM (3 of 3 replicates; controls 9 of 9).
Variant KNSQSVLPESRNKNSVA, WASTRES, QQYHCLPLS gave 750 nM (3 of 3 replicates; controls 1 of 9).
Variant KSSQSVLNESCNKNSVA, WASRRES, QQYHRLPLS gave 3.0 µM (3 of 3 replicates; controls 8 of 9).
Variant KSSQSVLMASRNKNSVA, WASTRES, LQYHRLPLS gave 8.5 µM (1 of 3 replicates; controls 0 of 9).
Variant KSSQSVLKESHNKNSVA, WASTRES, QQWHRLPLS gave 39 µM (1 of 3 replicates; controls 3 of 9).
Variant KSSQSVLMESRNKNSVA, WASTRES, TQYHRNPLS gave 140 µM (1 of 3 replicates; controls 1 of 9).
Variant KSSQSPLLESRNKNSVA, MASTRES, QQYHRLPLS gave 160 µM (1 of 3 replicates; controls 1 of 9).
Variant KSSQSVLVNSRNKNSVA, WWSTRES, QQYHRLPLS gave 280 µM (1 of 3 replicates; controls 0 of 9).
Variant KSSQSVLWESRNKNSVA, WASTRES, QQYHRNPNS gave 500 µM (1 of 3 replicates; controls 3 of 9).
Variant KSSQSVLWESRNKNSVA, WASTRQS, QQYHRLPWS gave nd (0 of 3 replicates; controls 1 of 9).
Variant KSSQSVLLESRNANSVA, WASTRES, QQYHRLPLP gave nd (0 of 3 replicates; controls 0 of 9).
Variant KSSQSVLILSRNKNSVA, WASTRES, QQVHRLPLS gave nd (0 of 3 replicates; controls 0 of 9).
Variant KSSQSVLLESRNNNSVA, WASTRES, QQYHGLPLS gave nd (0 of 3 replicates; controls 0 of 9).
Variant KSSQSVLIESRNKNSVA, WAKTRES, QQAHRLPLS gave nd (0 of 3 replicates; controls 0 of 9).
Variant KSSQSVLLESRNKNSVA, WASTEES, QQYHRSPLS gave nd (0 of 3 replicates; controls 0 of 9).
Variant KSSQSVLSESRNKNSVA, WAFTRES, LQYHRLPLS gave nd (0 of 3 replicates; controls 1 of 9).

The closing 6 entries, repeated:

| CDR-L1 | CDR-L2 | CDR-L3 | Kd (apparent) | seen in | signal with controls |
|---|---|---|---|---|---|
| KSSQSVLLESRNANSVA | WASTRES | QQYHRLPLP | nd | 0 of 3 | 0 of 9 |
| KSSQSVLILSRNKNSVA | WASTRES | QQVHRLPLS | nd | 0 of 3 | 0 of 9 |
| KSSQSVLLESRNNNSVA | WASTRES | QQYHGLPLS | nd | 0 of 3 | 0 of 9 |
| KSSQSVLIESRNKNSVA | WAKTRES | QQAHRLPLS | nd | 0 of 3 | 0 of 9 |
| KSSQSVLLESRNKNSVA | WASTEES | QQYHRSPLS | nd | 0 of 3 | 0 of 9 |
| KSSQSVLSESRNKNSVA | WAFTRES | LQYHRLPLS | nd | 0 of 3 | 1 of 9 |

Three control strains display no target. For library AAYL50, 18% of the pairings with them gave a signal, with a median of 15 µM and one signal in twenty below 970 nM, so weak values seen in few replicates may be background. Also given: how often the same scFv was detected with the empty control strains.
Parent in this assay: reference entry 4.4 nM, copy in this library 48 nM.